According to ChEMBL document CHEMBL3271943, “P-Aminobenzoic acid derivatives. Mode of action and structure-activity relationships in a cell-free system (Escherichia coli)” (J Med Chem, 1977):

Experiment: Partition coefficient, log P of the compound
Type: physicochemical
Settings: octanol/water

## Nc1ccc(C(=O)O)cc1 [AMINOBENZOIC ACID]
  logP: 0.83
